# Apparent affinities of Ab-91 variants for a coronavirus HR2 peptide

Reference: Engelhart et al. 2022, doi:10.1038/s41597-022-01779-4. File: FLAb, binding data.

The target is the same throughout: PDVDLGDISGINAS, from the HR2 region of SARS-CoV-2 spike.

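The parent was found by panning a naive human phage display library on the peptide. Variants in AAYL51 differ from the parent at up to three CDR positions; double and triple changes were sampled at random. Affinity was read by AlphaSeq, a pooled yeast mating assay with surface-displayed partners. After mating in shaken culture at 30 °C for 16 h, diploids were selected and their barcode pairs sequenced. Read counts were normalised to the haploid input and turned into Kd by a linear fit to BCL2-family pairs of known affinity, for each replicate. There are three technical replicates.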

Ab-91 is the parent antibody, in scFv form: VL, then a (GGGGS)3 linker, then VH. The light chain is unchanged in all variants.
VL: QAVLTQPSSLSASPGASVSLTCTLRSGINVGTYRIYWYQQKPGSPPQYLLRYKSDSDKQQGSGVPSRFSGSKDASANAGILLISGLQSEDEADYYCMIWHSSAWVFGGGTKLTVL
VH: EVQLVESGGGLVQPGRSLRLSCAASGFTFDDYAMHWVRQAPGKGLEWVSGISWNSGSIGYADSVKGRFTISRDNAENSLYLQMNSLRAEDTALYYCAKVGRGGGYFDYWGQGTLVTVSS

Positions count from residue 1 of the parent VH; T28E puts E in place of T.
Scale: log10 of Kd in nM, estimated from mating counts; low values are strong binders.
"nd" marks a missing value. The strain was present, yet no cells mated with the target were sequenced in that replicate, which points to weak or no binding.
Background: pairings of library AAYL51 with three empty control strains gave a value in 21% of cases (median 4.54, 5th percentile 3.26). Values in that range, when seen in few replicates, are hard to tell from nonspecific mating. For each scFv, signals with the empty controls are counted beside the result, with their mean in brackets.

changes,"replicates, log10 nM",empty controls
T28E+A33V+S57I,5.48 4.57 nd,6 of 9 (4.86)
D62K+V99L+G102Q,nd nd nd,0 of 9
F27A+A33V+S57A,4.39 nd nd,1 of 9 (4.43)
M34E+W53Q+Y105M,nd nd nd,2 of 9 (4.46)
A33R+G100Q+G103H,nd nd nd,0 of 9
F27M+S52F+G100D,nd nd nd,0 of 9
G50T,6.77 nd 5.13,6 of 9 (5.28)
D31I+Y60W+V64N,nd nd nd,0 of 9
D31V+S57T+G59M,4.34 6.32 nd,7 of 9 (4.76)
F29T+S55P+A61Q,4.46 nd nd,2 of 9 (4.20)
Y60E+A61K+K65T,2.88 nd nd,0 of 9
G26M+D62P+Y108D,3.29 3.29 3.39,4 of 9 (4.68)
F27S+D31N+S52H,nd 4.06 nd,3 of 9 (4.06)
A61E+G102C+G103L,nd nd nd,1 of 9 (4.26)
F27V+T28R,2.52 2.51 2.95,1 of 9 (3.55)
D31E+N54G+R101K,2.64 2.58 2.59,1 of 9 (3.97)
T28S+Y32K+D62T,3.75 4.46 nd,1 of 9 (3.38)
Y32D+G56I+I58L,5.10 4.31 nd,2 of 9 (5.11)
A33I+D107A+Y108D,4.67 3.23 3.96,2 of 9 (4.48)
G50K+V99Y+G102E,4.72 6.72 nd,1 of 9 (4.83)
F29R+D31H+S55Y,4.21 nd nd,0 of 9
G26R+S57I+V99M,nd 4.26 nd,3 of 9 (4.21)
A33P+H35S+N54F,nd nd nd,0 of 9
F29C+H35A+Y60L,3.51 3.99 4.63,4 of 9 (4.44)
Y32G+K65W+G100N,nd 3.97 nd,0 of 9
F27S+V99I+G100S,4.50 nd 5.62,4 of 9 (4.92)
F27C+D31Y+G100I,nd nd nd,1 of 9 (4.32)
W53G+N54R+G59K,5.33 5.88 5.66,6 of 9 (5.48)
I51M+V64Y+Y108V,3.98 nd nd,7 of 9 (4.62)
F27N+Y60N+F106I,4.73 nd nd,1 of 9 (4.44)
G26N+K65V+F106S,nd nd 5.12,3 of 9 (4.77)
A33F+D62H+G102P,5.03 nd 4.96,4 of 9 (4.24)
F27H+D31L+D107Y,5.13 4.42 4.37,1 of 9 (3.93)
A33K+I58V+G102T,nd nd nd,1 of 9 (2.20)
F29Y+A33Q+Y60W,nd nd nd,0 of 9
D30A+A33Y+S55Y,nd nd nd,2 of 9 (4.45)
D62S+R101A,1.35 1.33 1.12,0 of 9
M34H+S57N+G102C,nd nd 3.93,1 of 9 (3.37)
T28R+G104W+Y105D,4.95 5.64 4.24,5 of 9 (4.55)
G26L+A33S+H35D,nd nd nd,0 of 9
A33W+N54L+G59T,nd nd nd,2 of 9 (3.50)
I51C+I58D+Y105S,3.77 6.13 4.54,3 of 9 (4.66)
M34G+G104R,nd 4.06 3.25,3 of 9 (4.25)
G26R+F27H+D31F,nd nd nd,2 of 9 (4.44)
F29N+S55I,nd nd nd,0 of 9
F27C+I51N+A61M,nd nd nd,0 of 9
G100V+D107R+Y108T,nd nd nd,0 of 9

For reference, 6 entries of the list once more:

changes,"replicates, log10 nM",empty controls
G100V+D107R+Y108T,nd nd nd,0 of 9
F27C+I51N+A61M,nd nd nd,0 of 9
G26M+D62P+Y108D,3.29 3.29 3.39,4 of 9 (4.68)
G26R+F27H+D31F,nd nd nd,2 of 9 (4.44)
D62K+V99L+G102Q,nd nd nd,0 of 9
T28E+A33V+S57I,5.48 4.57 nd,6 of 9 (4.86)

In this assay the parent's reference entry averaged 1.86; its copy inside this library read 0.88.